Measured values published in US5998393A, “Methods for assessing 1,25(OH)2 D3 activity in skin and for enhancing the therapeutic use of 1,25(OH)2 D3” (priority 1997, dated 1999).

Tested on: 24-hydroxylase mRNA
Test: 24-OHase mRNA induction in human skin in vivo after topical application (Northern blot)
Conditions: for 24-OHase mRNA level: n=15

## CC1=C(/C=C/C(C)=C/C=C/C(C)=C/C(=O)O)C(C)(C)CCC1 [t-RA, All-trans-retinoic acid]
FIG. 6, 1,25(OH)2 D3, 0.1% t-RA, or both, two days occlusion
  24-OHase mRNA level: did not induce
RA isomer (0.1%) added to 0.002% 1,25(OH)2D3
  increase in 24-OHase transcription level compared to 1,25(OH)2 D3 treatment alone: 50%

## CC1=C(/C=C/C(C)=C\C=C\C(C)=C\C(=O)O)C(C)(C)CCC1 [9-c-RA, 9-cis retinoic acid]
FIG. 1, single agents, 0.002% D3 or 0.1% 9cRA, topical, occluded 2 days
  increase in 24-OHase mRNA induction: no significant increase
FIG. 5, 0.002% 1,25(OH)2 D3, 0.1% 9-c-RA, or both, 48 h occlusion, maximum = 0.05% 1,25(OH)2 D3
  24-OHase mRNA level: did not change
co-applied with low dose (0.002%) 1,25(OH)2 D3, discussion
  enhancement of 24-OHase mRNA level induced by a low dose of 1,25(OH)2 D3: synergistically enhance
